Source: PubChem (several laboratories)
MC4R antagonist: human MC4R antagonism in cAMP assay | P32245 | MC4R-expressing cells, MTII-stimulated cAMP, LANCE TR-FRET | inhibition, % at 6.5 µM | 360,000 tested, 0.48% active;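 active = inhibition above its plate's cutoff, the mean of tested wells on that plate plus 3 SD, cut at about 29% in these data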;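 note: 0% = Melanotan II alone and 100% = Melanotan II plus saturating MCL0020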
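System: U2OS cells stably expressing human melanocortin 4 receptor (MC4R). Reagent: Melanotan II challenge after compound preincubation. Doses: 6.5 µM. Times: 30-min compound, 1-h challenge, 1-h detection, room temperature. Measured by: TR-FRET with Eu-cAMP and labeled anti-cAMP, 671 nm. Replicates: singlicate.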
NRP1-CendR mod: NRP-1/CendR interaction modulation; O14786; FAM-RPARPAR peptide binding to NRP-1, fluorescence polarization; inhibition, % at 25 µM; 360,000 tested, 0.85% active; AID 602438;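 active = inhibition or corrected inhibition above about 18%, plus a signal ratio from 0.5 to 1.5, limit read from the data, passing the limit was not always enough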
MC4R barr agon: agonists of human melanocortin 4 receptor (MC4R) beta-arrestin; AID 540308; P32245; 360,000 tested, 0.98% active; U2OS MC4R beta-arrestin complementation, luminescence; percent of melanotan II response, DMSO zero; activation, % at 8.9 µM;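 active = activation above a per-plate cutoff, the mean activation of sample wells on that plate plus 3 SD, cut at about 8% in these data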
ASAP1 inh: ASAP1 ArfGAP inhibition | Q9ULH1 | ASAP1-stimulated ARF1 GTP hydrolysis, GDP FP detection | inhibition, % at 16.5 µM | 360,000 tested, 0.19% active; in the data active = inhibition above about 25%;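 note: 0% = vehicle with enzyme and substrate and 100% = no enzyme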
UUG fidelity: modulators of start codon recognition fidelity in yeast; AID 602363; activity score, % at 18.7 µM; S. cerevisiae UUG-firefly luciferase reporter, luminescence/redox ratio; 0.13% of 350,000 active;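 active = replicate mean at a twofold rise or more, about +100% in these data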;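 note: firefly luciferase made from a UUG start codon reports start codon fidelity; reporter light over untreated wells divided by growth signal over untreated wells; some hits fall short of that in this replicate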
ARFGAP1 inhibitor: inhibits rat ARF GTPase activating protein 1 | Q62848 | Arfgap1-stimulated ARF1 GTP hydrolysis, GDP FP detection | inhibition, % at 16.5 µM | 360,000 tested, 0.26% active | AID 651572;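 active = inhibition above a per-plate limit, mean inhibition of low control wells plus 3 SD, cut at about 25% in these data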;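 note: 0% = DMSO wells with enzyme and 100% = wells lacking Arfgap1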
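Assay system: Rat Arfgap1 GAP domain (His6, aa 1-136), purified enzyme | Buffer or medium: HEPES 25 mM pH 7.5, NaCl 150 mM, MgCl2, DTT | Schedule: GTP hydrolysis reaction 2 h at 25 °C | Signal: FP of antibody-bound GDP Alexa 633 tracer, ex 620/em 688 nm | Measure: Percent inhibition of Arfgap1-stimulated GTP hydrolysis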
* hit, by the source's call; x = no result. An excerpt weighted towards active compounds, which were near 2.3% of everything screened.

Screens by letter – A = MC4R antagonist; B = NRP1-CendR mod; C = MC4R barr agon; D = ASAP1 inh; E = UUG fidelity; F = ARFGAP1 inhibitor
molecule: COc1ccc(C#Cc2ccc3c(c2)[C@]2(C(=O)N3)[C@H](c3ccc(O)cc3)N3[C@H](c4ccccc4)[C@H](c4ccccc4)OC(=O)[C@H]3[C@@H]2C(=O)NC[C@H](O)c2ccccc2)cc1
  A = x	B = x	C = x	D = x	E = -2.5	F = x
molecule: CN(C)c1ccc(Cl)cc1N
  A = -1.0	B = 27.6*	C = 0.9	D = -10.4	E = x	F = -12.0
molecule: Cc1ccc(SCCN2CCN(C)CCC2=O)cc1
  A = 0.0	B = 26.2*	C = -1.4	D = -0.6	E = -17.5	F = 5.7
molecule: C[C@H](CO)N1C[C@H](C)[C@H](CN(C)Cc2ccc3c(c2)OCO3)OCCCC[C@H](C)Oc2ccc(NS(=O)(=O)c3ccc(Cl)cc3)cc2C1=O
  A = x	B = x	C = x	D = x	E = 1.3	F = x
molecule: CN(C)CCCNc1c2c(nc3ccccc13)CCC2
  A = 10.3	B = 13.3	C = 0.8	D = -1.4	E = 4.8	F = -15.9
molecule: CN(C)CCNCCCNc1c2ccccc2nc2cccc([N+](=O)[O-])c12
  A = 6.1	B = 30.9*	C = -2.1	D = -2.9	E = x	F = -4.8
molecule: COC(=O)C1=C(CS(=O)(=O)c2ccc(OC)c(OC)c2)NC(=O)NC1c1ccc(O)c(OC)c1 (centres undefined)
  A = 2.1	B = 4.6	C = -2.5	D = -2.2	E = 15.1	F = -6.0
molecule: COC(=O)C1=C(CS(=O)(=O)c2cc(OC)ccc2OC)NC(=O)NC1c1ccc(O)c(OC)c1 (centres undefined)
  A = 2.3	B = 19.9*	C = -2.9	D = -12.9	E = -3.9	F = 1.9
molecule: CC(=O)Nc1cccc(NC(=S)Nc2cccc3ccccc23)c1
  A = 9.8	B = 30.3*	C = -2.5	D = -8.0	E = 0.9	F = -11.3
molecule: CC(=O)c1cccc(NC(=S)Nc2cccc3ccccc23)c1
  A = 0.5	B = 6.5	C = -1.9	D = -7.1	E = -32.5	F = 3.2
molecule: C[C@@H]1CN([C@H](C)CO)S(=O)(=O)c2ccc(C#CC3(O)CCCC3)cc2O[C@@H]1CN(C)C(=O)c1ccccc1
  A = x	B = x	C = x	D = x	E = 11.1	F = x
molecule: C[C@@H]1CN([C@@H](C)CO)S(=O)(=O)c2ccc(-c3ccccc3)cc2O[C@H]1CN(C)C(=O)Cc1ccccc1
  A = x	B = x	C = x	D = x	E = 8.1	F = x
molecule: CNC(=O)CC12CC3CC(CC(C3)C1)C2
  A = 9.3	B = 7.9	C = -2.8	D = 4.8	E = -17.6	F = 8.0
molecule: COCCNC(=S)NC(=O)CC12CC3CC(CC(C3)C1)C2
  A = -9.6	B = 3.8	C = 8.3*	D = 0.7	E = x	F = -16.6
molecule: COc1ccc(CNC(=O)c2ccccc2[N+](=O)[O-])cc1
  A = -0.6	B = 26.2*	C = -1.0	D = x	E = x	F = x
molecule: CC(=O)Nc1cccc(-c2cc(NC(C)=O)c3ncc(-c4cccc(C(C)=O)c4)n3c2)c1
  A = 8.3	B = -7.0	C = 8.6*	D = 6.4	E = -11.8	F = 7.8
molecule: CC(=O)Nc1cc(-c2cccc(N)c2)cn2c(-c3ccc(C(C)=O)cc3)cnc12
  A = 10.1	B = -1.5	C = 6.8	D = -7.5	E = -8.0	F = 3.0
molecule: COc1cccc(-c2cnc3c(NC(C)=O)cc(-c4ccc(C(=O)NC5CC5)cc4)cn23)c1
  A = 14.2	B = -16.8	C = 8.8*	D = 21.2	E = -2.6	F = 8.5
molecule: O=C(c1cn[nH]c1)N1CCc2c([nH]c3ccccc23)C1c1c(F)cccc1Cl (centres undefined)
  A = 24.5	B = 40.5*	C = 0.7	D = 7.7	E = x	F = 6.2
molecule: COc1cccc(C2c3[nH]c4ccccc4c3CCN2C(=O)c2ccccc2F)c1OC (centres undefined)
  A = 10.8	B = -2.0	C = -2.5	D = 4.8	E = 0.7	F = 7.7
molecule: CCCN(C)C[C@H]1Oc2cc(-c3ccncc3)ccc2S(=O)(=O)N([C@@H](C)CO)C[C@H]1C
  A = x	B = x	C = x	D = x	E = -16.0	F = x
molecule: COc1ccc(N/C=C\C(=O)c2ccc3c(c2)OCO3)cc1OC
  A = 19.2	B = -8.6	C = -1.9	D = -7.0	E = -39.4	F = -0.7
molecule: COC(=O)c1ccc(N/C=C\C(=O)c2ccc3c(c2)OCO3)cc1
  A = 2.5	B = 21.7*	C = -2.6	D = 8.6	E = x	F = 3.7
molecule: COC(=O)/C=C/c1ccccc1S(=O)(=O)N(Cc1ccccc1)Cc1ccco1
  A = -11.7	B = 16.7*	C = -1.5	D = -3.6	E = -14.8	F = -6.4
molecule: COc1ccccc1/C=C/C(=O)OCC(=O)NCc1ccco1
  A = 18.3	B = -3.4	C = 2.1	D = 8.4	E = -10.4	F = 0.7

Random excerpt: three records from the list
Screens by letter – A = MC4R antagonist; B = NRP1-CendR mod; C = MC4R barr agon; D = ASAP1 inh; E = UUG fidelity; F = ARFGAP1 inhibitor
molecule: COc1ccc(C#Cc2ccc3c(c2)[C@]2(C(=O)N3)[C@H](c3ccc(O)cc3)N3[C@H](c4ccccc4)[C@H](c4ccccc4)OC(=O)[C@H]3[C@@H]2C(=O)NC[C@H](O)c2ccccc2)cc1
  A = x	B = x	C = x	D = x	E = -2.5	F = x
molecule: C[C@@H]1CN([C@H](C)CO)S(=O)(=O)c2ccc(C#CC3(O)CCCC3)cc2O[C@@H]1CN(C)C(=O)c1ccccc1
  A = x	B = x	C = x	D = x	E = 11.1	F = x
molecule: CC(=O)Nc1cc(-c2cccc(N)c2)cn2c(-c3ccc(C(C)=O)cc3)cnc12
  A = 10.1	B = -1.5	C = 6.8	D = -7.5	E = -8.0	F = 3.0

(cont.)
Screens by letter – A = MC4R antagonist; B = NRP1-CendR mod; C = MC4R barr agon; D = ASAP1 inh; E = UUG fidelity; F = ARFGAP1 inhibitor
molecule: COc1ccc2c(c1)[n+](=O)c(C(C)=O)c(C)n2[O-]
  A = 6.5	B = -1.0	C = 0.0	D = -6.6	E = -0.4	F = 15.4
molecule: CCOC(=O)c1c(=O)n(O)c2ccc(OC)cc2[n+]1[O-]
  A = -2.0	B = 25.2*	C = -0.9	D = -12.3	E = x	F = -3.1
molecule: C[C@@H]1CCCCO[C@@H](CN(C)C(=O)Nc2cccc3ccccc23)[C@H](C)CN([C@@H](C)CO)C(=O)c2cc(NC(=O)CCC(F)(F)F)ccc2O1
  A = x	B = x	C = x	D = x	E = -0.2	F = x
molecule: COc1ccc(N2CCN(C(=O)c3ccc(OCc4c(C)noc4C)c(OC)c3)CC2)cc1
  A = -1.6	B = 8.1	C = -2.5	D = 10.2	E = x	F = 11.2
molecule: COc1cc(C(=O)N2CCN(c3ccc([N+](=O)[O-])cc3)CC2)ccc1OCc1c(C)noc1C
  A = 7.8	B = 19.3*	C = -2.8	D = -12.2	E = 31.0	F = 5.5
molecule: Nc1cc2c3c(cccc3c1)C(=O)N(CCN1CCCC1)C2=O
  A = -27.5	B = 31.6*	C = -0.9	D = 4.3	E = -9.2	F = 5.4
molecule: O=C1c2cccc3cc([N+](=O)[O-])cc(c23)C(=O)N1CCN1CCCC1
  A = -8.9	B = 30.1*	C = -0.5	D = -15.1	E = -3.5	F = 11.1
molecule: C[C@@H]1CCCCO[C@@H](CN(C)C(=O)Nc2ccc(F)cc2)[C@H](C)CN([C@@H](C)CO)C(=O)c2cc(NC(=O)Cc3ccccc3)ccc2O1
  A = x	B = x	C = x	D = x	E = -15.8	F = x
molecule: O=C1CC(N2CCN(Cc3ccc4c(c3)OCO4)CC2)C(=O)N1c1cccc2ccccc12 (centres undefined)
  A = 17.1	B = -0.8	C = -0.9	D = -4.4	E = -5.2	F = 1.5
molecule: O=C1CC(N2CCN(Cc3ccc4c(c3)OCO4)CC2)C(=O)N1c1cccc(Cl)c1 (centres undefined)
  A = 18.0	B = 37.1*	C = -1.0	D = 10.8	E = -6.4	F = -7.2
molecule: COc1c(C(CC(C)C)OC(C)=O)ccc2c1C(=O)OCc1cc(C)cc(O)c1O2 (centres undefined)
  A = 7.0	B = 4.1	C = 8.6*	D = 6.1	E = -3.5	F = 10.7
molecule: COc1ccc(CN2CCN(CC(O)Cn3c4ccccc4c4ccccc43)CC2)cc1 (centres undefined)
  A = 11.6	B = -2.3	C = 9.5*	D = 10.7	E = x	F = 12.9
molecule: C[C@H](CO)N1C[C@H](C)[C@@H](CN(C)S(=O)(=O)c2ccc(Cl)cc2)Oc2c(NS(C)(=O)=O)cccc2C1=O
  A = x	B = x	C = x	D = x	E = 0.4	F = x
molecule: CC(C)Cn1nc(NC(=O)c2cccs2)c2cc3ccccc3nc21
  A = 2.6	B = 0.7	C = -0.6	D = 11.8	E = -8.3	F = 2.6
molecule: COc1ccc2nc3c(cc2c1)c(NC(=O)c1cccs1)nn3CC(C)C
  A = 0.1	B = 44.6*	C = -1.0	D = 16.9	E = -13.4	F = 1.1
molecule: C[C@@H]1CN([C@H](C)CO)C(=O)c2cc(C#CCN(C)C)cnc2O[C@H]1CN(C)C(=O)CN1CCOCC1
  A = x	B = x	C = x	D = x	E = -12.8	F = x
molecule: CCOC(=O)C1(CCCc2ccccc2)CCN(C2CCSCC2)CC1
  A = 0.9	B = -0.4	C = 9.2*	D = -7.9	E = x	F = 6.8
molecule: C[C@@H]1CN([C@H](C)CO)C(=O)c2cc(-c3ccc(C#N)cc3)cnc2O[C@@H]1CN(C)Cc1cccnc1
  A = x	B = x	C = x	D = x	E = -3.9	F = x
molecule: O=C(N[C@H]1CC[C@@H](CCNS(=O)(=O)Cc2ccccc2)O[C@H]1CO)c1ccc2c(c1)OCO2
  A = x	B = x	C = x	D = x	E = 6.0	F = x
